Source: PubChem BioAssay AID2540 (Sanford-Burnham Center for Chemical Genomics, 2010)
Only a part is listed here, and it is no random draw. Some tests of the compounds listed are not included; inactive here does not mean inactive elsewhere. Active and inactive are the calls of the source. Cut-off read from the data, not from the text of the source: active = inhibition above about 50%; inactive = the rest.

The chains behind the UniProt entries cited, without tags or fusion partners.
UniProt Q96LD8, whole entry: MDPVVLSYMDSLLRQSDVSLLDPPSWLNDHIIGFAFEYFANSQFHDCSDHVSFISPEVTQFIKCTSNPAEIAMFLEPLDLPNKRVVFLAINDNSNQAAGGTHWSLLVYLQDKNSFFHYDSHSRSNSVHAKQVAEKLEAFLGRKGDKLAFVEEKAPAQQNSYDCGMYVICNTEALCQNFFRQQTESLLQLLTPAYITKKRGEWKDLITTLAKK

Each molecule was assayed against Sentrin-specific protease 8 (Homo sapiens) (UniProt Q96LD8) (assay: blockers of human SENP8 peptidase activity – biochemical, luminescence, primary screen (AID 2540)). Conditions: purified SENP8, Z-RLRGG-aminoluciferin cleavage, at 10 µM, hits give high values.

Structure (SMILES)	inhibition
CN(C)C1CCCC1OC(=O)C(O)(c1ccccc1)c1ccccc1 (centres undefined)	inactive: -6.25%
CN(C)c1ccc(C(=O)NCC2(N(C)C)CCCCC2)cc1	inactive: 1.19%
Cc1ccccc1C(=O)NCC1(N2CCCCC2)CCCCC1	inactive: -2.15%
O=C(NCC1(N2CCCCC2)CCCCC1)c1cccc(Br)c1	inactive: -3.76%
Cc1cc(C(=O)NCC2(N3CCCCC3)CCCCC2)ccc1[N+](=O)[O-]	inactive: -4.46%
CCN1CCCC(OC(=O)C2(O)c3ccccc3C=Cc3ccccc32)C1 (centres undefined)	inactive: -4.81%
COc1ccc(C(=O)NCC2(N(C)C)CCCCC2)cc1	inactive: 6.82%
O=C(NCC1(N2CCCCC2)CCCCC1)c1cc(F)c(F)cc1Cl	inactive: -0.964%
C=CCN1CCN(CCOC(=O)C(O)(c2ccccc2)c2ccccc2)CC1	inactive: -9.81%
CN1[C@@H]2CC[C@H]1CC(OC(=O)C(O)(c1ccccc1)c1ccccc1)C2 (some centres undefined)	inactive: 11.5%
O=C(NCC1(N2CCCCC2)CCCCC1)c1cc([N+](=O)[O-])ccc1Cl	inactive: -0.09%
Cc1ccc(C(=O)NCC2(N3CCCCC3)CCCCC2)cc1	inactive: 4.93%
CC(C)N1C(=O)CC2(CCN(CCOC(=O)C(O)(c3ccccc3)c3ccccc3)CC2)C1=O	inactive: -0.085%
COc1cc(SC)ccc1C(=O)NCC1(N(C)C)CCCCC1	inactive: 3.54%
CCN(CC)CC(C)C(C)OC(=O)C(O)(c1ccccc1)c1ccccc1 (centres undefined)	inactive: 5.42%
O=C(OC1CN2CCC1CC2)C(CO)(c1ccccc1)c1ccccc1 (centres undefined)	inactive: 0.572%
CN(C)c1cccc(C(=O)NCC2(N(C)C)CCCCC2)c1	inactive: 3.41%
CC(C)Oc1ccc(C(=O)NCC2(N(C)C)CCCCC2)cc1	inactive: -0.453%
COc1ccc(Br)c(C(=O)NCC2(N3CCCCC3)CCCCC2)c1	inactive: -4.43%
COc1cc(C(=O)NCC2(N(C)C)CCCCC2)c([N+](=O)[O-])cc1OC	inactive: -6.06%
CN(C)C1(CNC(=O)c2ccc(Br)cc2)CCCCC1	inactive: 0.886%
O=C(NCC1(N2CCCCC2)CCCCC1)c1cccc(Cl)c1	inactive: -2.04%
COc1ccc(Cl)cc1C(=O)NCC1(N(C)C)CCCCC1	inactive: -5.9%
COc1cccc(C(=O)NCC2(N3CCCCC3)CCCCC2)c1	inactive: -1.22%
